Source: patent US6506772B1, “Substituted [1,2,4]triazolo[1,5a]pyridine derivatives with activity as adenosine receptor ligands” (Hoffmann-La Roche Inc., priority 2000, dated 2003)
pKi: −log10 of the molar value.

Protein sequences, listed by entry. Tags and fused reporters are not part of them.
UniProt P30542, whole entry: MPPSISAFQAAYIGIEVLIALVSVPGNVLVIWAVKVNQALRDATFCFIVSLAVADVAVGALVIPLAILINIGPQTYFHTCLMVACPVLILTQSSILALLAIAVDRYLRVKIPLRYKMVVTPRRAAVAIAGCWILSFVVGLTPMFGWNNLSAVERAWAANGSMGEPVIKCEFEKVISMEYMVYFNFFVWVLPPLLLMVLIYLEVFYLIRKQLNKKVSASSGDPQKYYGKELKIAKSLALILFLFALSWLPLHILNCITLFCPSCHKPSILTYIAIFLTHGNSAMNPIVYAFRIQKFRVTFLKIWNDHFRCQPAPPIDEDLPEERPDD

Experiments:
[1] = molecular target: human adenosine A2A receptor (Homo sapiens, UniProt P29274); test: Human adenosine A2A receptor [3H]-SCH-58261 binding assay
HA1 adenosine receptor = HA1 adenosine receptor (Homo sapiens, UniProt P30542); test: Human adenosine A1 receptor affinity (Ki hA1); format: binding; settings: read-out: Ki HA1; affinity to human adenosine A1 receptor

`Cc1ccc(-c2nc3cc(C(=O)NC4CCc5ccccc54)cc(N)n3n2)o1` (stereo not drawn) showed a selectivity (A1/A2a) ([1]; calculated ratio of the affinity to the HA1 receptor to the HA2a receptor) of 8.2, a pKi ([1]; read-out: Ki HA2A, affinity to human adenosine A2A receptor) of 7.41 and a pKi (HA1 adenosine receptor) of 6.49.
